# Apparent affinities of Ab-14 variants for a coronavirus HR2 peptide

Target peptide (SARS-CoV-2 spike, HR2 region): PDVDLGDISGINAS

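The parent was found by panning a naive human phage display library on the peptide. In library AAYL49, one, two or three CDR residues were substituted; doubles and triples were drawn at random. The assay is AlphaSeq: two haploid yeast populations carry antibody and antigen on their surface. Pairs that bind mate more often; barcode pairs of the diploids are counted by sequencing. Read counts were normalised to the haploid input and turned into Kd by a linear fit to BCL2-family pairs of known affinity, for each replicate. Mating was done three times.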

Ab-14 is the parent antibody, in scFv form: VH, then the linker GGGGSGGGGSGGGGS, then VL. The light chain is unchanged in all variants.
VH: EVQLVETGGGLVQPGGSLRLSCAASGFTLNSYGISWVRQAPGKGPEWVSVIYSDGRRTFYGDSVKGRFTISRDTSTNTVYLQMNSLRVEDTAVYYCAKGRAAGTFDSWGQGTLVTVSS
VL: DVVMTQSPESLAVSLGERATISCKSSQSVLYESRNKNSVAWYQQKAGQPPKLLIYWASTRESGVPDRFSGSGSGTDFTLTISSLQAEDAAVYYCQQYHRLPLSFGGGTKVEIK

Variants are written as CDR1, CDR2 and CDR3 of the heavy chain (limits as in the source). Parent: GFTLNSYGIS, VIYSDGRRTFYGDSVK, GRAAGTFDS. All variants listed here change S63 of the VH, counted from its first residue. Each Kd is an estimate from the mating assay, the geometric mean of the replicates in which the pair was seen; lower is stronger. "nd" marks a missing value. The strain was present, yet no cells mated with the target were sequenced in any replicate, which points to weak or no binding.

Variant GFTLNSYGIS / FIYSDGRRTFYGDFVE / GRAAGTFDS showed nd (0 of 3 replicates). Variant GFTLVSYGIS / VIYSDGRRTQYGDAVK / GRAAGTFDS showed 48 µM (3 of 3 replicates). Variant GFTLNSYGIS / VIYSDGRRTFYGDLVK / GNAAGTFDS gave 330 nM (3 of 3 replicates). Variant GFTLNSYGIS / VIYSDLRRTFYGDFVK / GRAAGTFDS showed nd (0 of 3 replicates). Variant VFTLNSYGIS / VIYSDGHRTFYGDEVK / GRAAGTFDS showed 22 µM (1 of 3 replicates). Variant GFTLVSYGIS / VIESDGRRTFYGDPVK / GRAAGTFDS gave nd (0 of 3 replicates). For GFTLNSYLIS / VIYSDGRRTFYGDTVK / GRAAGTFDP, the assay gave nd (0 of 3 replicates).

Variant GFTLNSYGIV / VIYSDGRRTFYADRVK / GRAAGTFDS gave 160 µM (1 of 3 replicates). Variant GFTLNSYGIS / VIYSDVRRTAYGDCVK / GRAAGTFDS showed 22 µM (1 of 3 replicates). With IFTLNSYGIS / VIYSDGRRTFYGDKVK / GRAAGTFAS the result was 1.0 µM (3 of 3 replicates). For GFTLNSYGRS / VIYSDGRRTFYGDMVK / GRAAGTQDS, the assay gave 24 µM (2 of 3 replicates). For GFTLNSYGIS / YIYSDGRRTFYGDTVQ / GRAAGTFDS, the assay gave nd (0 of 3 replicates). Variant GFTLNLYGIS / VSYSDGRRTFYGDIVK / GRAAGTFDS showed 6.6 µM (2 of 3 replicates). With GFTLNSYGIS / VIYSDGRRTFYGDPVQ / GRAAGTFDS the result was 34 nM (3 of 3 replicates).

Variant GFTLVSYGIS / VIYSWGRRTFYGDWVK / GRAAGTFDS gave 1.7 µM (1 of 3 replicates). With GFTLNSYGIS / VIFSDGRRTFYGDMVK / GRAAGTWDS the result was 1.4 µM (3 of 3 replicates). With GFTLNSYGIS / VIYSDGRRTFYGDVVE / GRAAGDFDS the result was 11 µM (1 of 3 replicates). Variant GFTLNSYGIS / VIYSDGRRTFNGDPVK / GRAAGTFDS gave nd (0 of 3 replicates). Variant GFTLNSYGKS / VYYSDGRRTFYGDCVK / GRAAGTFDS gave nd (0 of 3 replicates). With GFTLNSYGIS / NIYSDGRRTPYGDNVK / GRAAGTFDS the result was 530 nM (1 of 3 replicates). With GFFLNSYGIS / VIYSDGRRTFYGDYVK / GRAAYTFDS the result was nd (0 of 3 replicates).

Variant GFTLNSYGSS / VIYSDGRRTFYGDMVK / GRAAGTFDD showed 30 µM (1 of 3 replicates). Variant GFTLNSCGIS / VIYSDGRRTFYGDMVK / GRAAGTFIS gave 820 nM (1 of 3 replicates). Variant GFTLNSYGIS / VIYSDGIRHFYGDFVK / GRAAGTFDS gave 580 nM (3 of 3 replicates). With GFTLNSYGIS / VIKSDGRRTFYGDWVK / GRAAGTFDQ the result was 16 µM (1 of 3 replicates). Variant GFTLNSYGPS / VIYSDGRRTFIGDMVK / GRAAGTFDS gave nd (0 of 3 replicates). Variant GFTLNSYGIS / VIYSDWRRTFYGPHVK / GRAAGTFDS gave 2.3 µM (1 of 3 replicates). For GFTLNSYGIS / NIYSFGRRTFYGDQVK / GRAAGTFDS, the assay gave nd (0 of 3 replicates).

Variant GFTLNSYGIS / VDYSDGRRRFYGDLVK / GRAAGTFDS showed nd (0 of 3 replicates). With LFTLNSYGIS / VIYSDGRRTFYGDHVK / GRAAGTFDS the result was 120 nM (3 of 3 replicates). With GFTLNSYGII / VIYSDGRRTFYGQYVK / GRAAGTFDS the result was nd (0 of 3 replicates). With GFTLNSYGIS / VIYSDGRRTFYRDVVK / GRAAGTFDS the result was nd (0 of 3 replicates). Variant GFTLNSYGIS / VNYSDGRRTFYGDFVK / GRAAGSFDS showed nd (0 of 3 replicates). For GFTLNSYGIY / VIYSDGRRTFYGDLVK / GRAAGTFDS, the assay gave nd (0 of 3 replicates). For GFTLNSYGIS / VIYSDGRRTFYGDPVK / GRAAGTFNL, the assay gave nd (0 of 3 replicates).

For GFTLNSYTIS / VIYSDGRRTFDGDGVK / GRAAGTFDS, the assay gave nd (0 of 3 replicates). Variant GFTLNSYGIS / LIYCDGRRTFYGDFVK / GRAAGTFDS gave nd (0 of 3 replicates). Variant EFTLNSYGIS / VIYSDGRRVFYGDLVK / GRAAGTFDS gave 27 µM (3 of 3 replicates).

The last 2 entries again:

{"CDR-H1": "GFTLNSYGIS", "CDR-H2": "LIYCDGRRTFYGDFVK", "CDR-H3": "GRAAGTFDS", "apparent Kd": "nd", "detected": "0/3"}
{"CDR-H1": "EFTLNSYGIS", "CDR-H2": "VIYSDGRRVFYGDLVK", "CDR-H3": "GRAAGTFDS", "apparent Kd": "27 µM", "detected": "3/3"}

For reference, the parent read 4.4 nM as the reference entry and 13 µM (one replicate of three) as a member of this library. Empty control strains, which show no peptide, gave a signal in 15% of pairings with library AAYL49; the median was 11 µM and 95% of these signals were weaker than 680 nM. No background was subtracted.

From the AlphaSeq antibody data of Engelhart et al. 2022 (doi:10.1038/s41597-022-01779-4), copy in the FLAb collection.